Test results taken from patent US20040176285A1, “Tip39 polypeptides” (priority 2001, published 2004).

Experiments:
[1] = molecular target: T1, endogenous PTH1R (Homo sapiens, UniProt Q03431); assay: Ligand-stimulated cAMP accumulation in SaOS-2 cells; type: cell-based; conditions: mean±SE
T1 construct: SaOS-2 cells expressing the wild-type PTH1R endogenously; endogenous in cells; host or cells: SaOS-2 human osteosarcoma cells
T1 sequence (Q03431 27-593): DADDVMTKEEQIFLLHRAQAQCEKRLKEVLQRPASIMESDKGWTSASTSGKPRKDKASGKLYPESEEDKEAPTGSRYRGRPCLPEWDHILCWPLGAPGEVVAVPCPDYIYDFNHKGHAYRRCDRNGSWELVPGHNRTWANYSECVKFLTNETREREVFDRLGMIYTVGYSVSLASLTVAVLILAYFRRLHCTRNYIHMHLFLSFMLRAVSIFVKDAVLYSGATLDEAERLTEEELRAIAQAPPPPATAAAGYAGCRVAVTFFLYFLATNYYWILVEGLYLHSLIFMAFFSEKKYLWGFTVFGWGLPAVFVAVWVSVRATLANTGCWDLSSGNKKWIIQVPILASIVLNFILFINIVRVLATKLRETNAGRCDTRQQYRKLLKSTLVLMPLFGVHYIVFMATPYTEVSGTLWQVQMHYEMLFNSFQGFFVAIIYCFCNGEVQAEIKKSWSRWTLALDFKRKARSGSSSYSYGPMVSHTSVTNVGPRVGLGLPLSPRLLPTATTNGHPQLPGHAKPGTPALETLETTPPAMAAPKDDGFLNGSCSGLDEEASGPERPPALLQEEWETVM
Procedure: (§1) DMEM, Trypsin/EDTA, and penicillin G/streptomycin and horse serum were from Gibco/BRL, Life Technologies, Gaithersburg, Md. LLC-PK, expressing the recombinant human PTH1R (HKrk-B7 cells) and SaOS-2 cells expressing the wild-type PTH1R endogenously were cultured in DMEM supplemented with 10% heat-inactivated fetal bovine serum, 100 U/ml penicillin, 100 μg/ml streptomycin, as previously described (Gardella, T. J., et al., J. Biol. Chem. 271:19888-19893 (1996); Fukayama, S., et al., Endocrinology 134:1851-1858 (1994)); both cell lines were maintained in a humidified atmosphere containing 95% air and 5% CO2. After seeding, medium was replaced daily, until cells were used for radioligand binding or cAMP accumulation assays.
(§2) Na^125I (specific activity: 2,000 Ci/mmol) was purchased from DuPont/NEN, Boston, Mass. Fetal bovine serum, 3-isobutyl-1-methyl-xanthine (IBMX), and BSA were from Sigma, St. Louis, Mo., and trifluoroacetic acid (TFA) was from Pierce, Rockford, Ill. […] The entire lysate was counted for γ-irradiation. Specific binding was determined after subtracting radioactivity bound in the presence of maximal concentrations of unlabeled competing peptide (10^−6 M). […] Data were analyzed and graphically illustrated using the graph-pad prism software package. […]

[2] = molecular target: T2, PTH1R (Homo sapiens, UniProt Q03431); assay: Ligand-stimulated cAMP accumulation in HKrk-B7 cells; type: cell-based; design: expressed in transfected cells; conditions: maximal cAMP accumulation; mean±SE
T2 sequence (Q03431 27-593): T1 sequence (Q03431 27-593)
Procedure: as §1, §2

## CC[C@H](C)[C@H](NC(=O)[C@H](CCC(=O)O)NC(=O)[C@H](CO)NC(=O)[C@@H](NC(=O)[C@@H](N)CO)C(C)C)C(=O)N[C@@H](CCC(N)=O)C(=O)N[C@@H](CC(C)C)C(=O)N[C@@H](CCSC)C(=O)N[C@@H](Cc1c[nH]cn1)C(=O)N[C@@H](CC(N)=O)C(=O)N[C@@H](CC(C)C)C(=O)NCC(=O)N[C@@H](CCCCN)C(=O)N[C@@H](Cc1c[nH]cn1)C(=O)N[C@@H](CC(C)C)C(=O)N[C@@H](CC(N)=O)C(=O)N[C@@H](CO)C(=O)N[C@@H](CCSC)C(=O)N[C@@H](CCC(=O)O)C(=O)N[C@@H](CCCNC(=N)N)C(=O)N[C@H](C(=O)N[C@@H](CCC(=O)O)C(=O)N[C@@H](Cc1c[nH]c2ccccc12)C(=O)N[C@@H](CC(C)C)C(=O)N[C@@H](CCCNC(=N)N)C(=O)N[C@@H](CCCCN)C(=O)N[C@@H](CCCCN)C(=O)N[C@@H](CC(C)C)C(=O)N[C@@H](CCC(N)=O)C(=O)N[C@@H](CC(=O)O)C(=O)N[C@H](C(=O)N[C@@H](Cc1c[nH]cn1)C(=O)N[C@@H](CC(N)=O)C(=O)N[C@@H](Cc1ccc(O)cc1)C(N)=O)C(C)C)C(C)C [[Tyr^34]PTH(1-34), [Tyr^34] human PTH(1-34)amide]
[1]; cAMP accumulation
  EC50: 0.3 ± 0.12 nM
[1]; maximal cAMP accumulation
  SaOS-2 Maxobs: 32 ± 5 pmol/48-well
[2]
  HKrk-B7 Maxobs: 42 ± 7 pmol/48-well
